This note sets out measurements from paper PMC7321161, “The Intriguing Effects of Substituents in the N-Phenethyl Moiety of Norhydromorphone: A Bifunctional Opioid from a Set of “Tail Wags Dog” Experiments” (Molecules, 2020).

The chains behind the UniProt entries cited, without tags or fusion partners.
UniProt P35372, whole entry: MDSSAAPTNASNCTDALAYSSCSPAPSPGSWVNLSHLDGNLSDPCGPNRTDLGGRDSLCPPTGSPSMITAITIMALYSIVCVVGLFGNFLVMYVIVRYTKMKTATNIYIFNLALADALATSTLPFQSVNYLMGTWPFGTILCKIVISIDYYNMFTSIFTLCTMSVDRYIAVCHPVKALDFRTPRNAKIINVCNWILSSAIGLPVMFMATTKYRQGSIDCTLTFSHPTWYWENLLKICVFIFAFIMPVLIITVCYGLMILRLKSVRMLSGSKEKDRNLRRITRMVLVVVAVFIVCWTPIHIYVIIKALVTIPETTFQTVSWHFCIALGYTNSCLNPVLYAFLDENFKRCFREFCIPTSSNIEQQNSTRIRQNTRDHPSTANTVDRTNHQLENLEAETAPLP

Test [1] deals with T1, human μ-opioid receptor (OPRM1) (Homo sapiens, UniProt P35372).
T1 construct: host or cells: HitHunter CHO-K1 cells
Kind of test: cell-based. The note with it: OPRM1, read-out: MOR cAMP % Efficacy.

Test [2] deals with T2, human μ-opioid receptor β-arrestin-2 (Homo sapiens, UniProt P35372).
T2 construct: enzyme fragment for EFC (β-galactosidase ProLink fragment, by own knowledge of the PathHunter system); host or cells: PathHunter CHO cells
As to the kind of experiment: cell-based.

Take `CN1CC[C@]23c4c5ccc(O)c4O[C@H]2C(=O)CC[C@H]3[C@H]1C5` [Compound S5, hydromorphone]: the Emax in test [1] was 102%; in test [2] (read-out: MOR Mediated β-arrestin Recruitment (% Control, Emax DAMGO)), 19.8%. Further, the “Bias Factor” value in test [2] stood at 3.48.
